These results are taken from US20120058499.

For one series, the target named is ubiquitin-rhodamine110 (UniProt P0CG47).
The test system of series [1] is Z-Arg-Leu-Arg-Gly-Gly (SEQ ID NO: 1)-amino-luciferin.
Series [2] has as its target ubiquitin-7-amino-4-methylcoumarin (UniProt P0CG47).

As for JosD1 (Josephin-1), the Signal to Background, fluorescence, DUB 10 nM in the series with ubiquitin-rhodamine110 came out at 1.5 S/B; in series [2] it was 1.1 S/B. Further, the Signal to Background, luminescence, DUB 10 nM with Ub(1-76)-aminoluciferin was 74 S/B; in series [1], 1.3 S/B.
